For this assay, the target named is full-length human Mineralocorticoid Receptor (MR) (Homo sapiens, UniProt P08235). The assay can be described thus: human MR NH Pro assay (PathHunter Protein:Protein interaction assay), MR antagonist activity. Format: cell-based. The settings on record: read-out: Primary Assay IP rating (IP = inflection point for a given dose-response titration curve); PathHunter CHO-K1 cells overexpressing human MR; aldosterone about 0.3 nM; 6 hours at 37° C.; luminescence.

Amino acid sequences for entries named in this document (tags omitted).
UniProt P08235, whole entry: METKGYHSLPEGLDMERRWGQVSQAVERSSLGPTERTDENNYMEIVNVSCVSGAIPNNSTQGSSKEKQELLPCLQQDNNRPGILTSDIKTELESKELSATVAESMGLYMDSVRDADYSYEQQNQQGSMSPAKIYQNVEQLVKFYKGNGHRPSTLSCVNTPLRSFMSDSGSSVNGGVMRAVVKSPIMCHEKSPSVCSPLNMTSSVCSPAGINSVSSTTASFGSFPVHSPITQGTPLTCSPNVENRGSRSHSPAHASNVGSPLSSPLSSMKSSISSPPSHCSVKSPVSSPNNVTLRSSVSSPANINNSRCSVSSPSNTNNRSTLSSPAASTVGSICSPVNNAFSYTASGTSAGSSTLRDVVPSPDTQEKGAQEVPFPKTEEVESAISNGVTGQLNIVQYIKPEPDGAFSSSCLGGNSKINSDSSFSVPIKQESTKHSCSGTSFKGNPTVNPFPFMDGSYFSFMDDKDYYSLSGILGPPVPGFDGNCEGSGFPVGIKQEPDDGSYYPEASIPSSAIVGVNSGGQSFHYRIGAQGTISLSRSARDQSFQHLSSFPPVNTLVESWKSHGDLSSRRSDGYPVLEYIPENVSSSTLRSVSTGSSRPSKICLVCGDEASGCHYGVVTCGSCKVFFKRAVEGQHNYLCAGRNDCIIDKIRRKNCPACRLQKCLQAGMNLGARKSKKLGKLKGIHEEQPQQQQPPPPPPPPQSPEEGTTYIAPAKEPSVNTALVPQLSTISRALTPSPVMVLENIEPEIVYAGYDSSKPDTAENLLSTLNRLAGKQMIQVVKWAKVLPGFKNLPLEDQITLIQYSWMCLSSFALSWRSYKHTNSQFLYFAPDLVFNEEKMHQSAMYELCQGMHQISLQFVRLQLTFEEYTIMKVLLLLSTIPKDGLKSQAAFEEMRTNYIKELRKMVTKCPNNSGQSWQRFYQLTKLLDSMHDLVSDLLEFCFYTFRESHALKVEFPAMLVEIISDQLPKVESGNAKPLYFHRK

As to `CCC(CCF)(c1ccc(Cl)cc1)n1ccc2c(NS(C)(=O)=O)cccc21` (single isomer, unassigned), the IC50 was less than 100 nM.

(Values after patent US8933113B2 (Merck Sharp & Dohme Corp., priority 2011, dated 2015).)
